Experimental data: patent publication US20170340688A1, “TITRATED EXTRACTS OF CYNARA SCOLYMUS AND USES THEREOF” (priority 2014, published 2017)

Test system: MSTO211H and NCI-H2052
Experiment: ATPlite cell vitality, extract in association with pemetrexed, MPM cell lines
Type: cell-based, human

Nc1nc2[nH]cc(CCc3ccc(C(=O)N[C@@H](CCC(=O)O)C(=O)O)cc3)c2c(=O)[nH]1 [PMTX, pemetrexed]
cell vitality (ATPlite) (72 h, extract 6 μg/ml where co-treated): cytotoxic for the MPM cells
concentration of pemetrexed sufficient to lower the cell vitality in double treatment (double treatment with extract at non-cytotoxic dose (6 μg/ml)): 10 µM
